Target: 5-HT1A receptor (Homo sapiens, UniProt P08908)
Conditions: 5-HT1A transfected cells, co-incubated with 5-HT, 0.5 μM FSK

Protein sequences, listed by entry. Tags and fused reporters are not part of them.
UniProt P08908, whole entry: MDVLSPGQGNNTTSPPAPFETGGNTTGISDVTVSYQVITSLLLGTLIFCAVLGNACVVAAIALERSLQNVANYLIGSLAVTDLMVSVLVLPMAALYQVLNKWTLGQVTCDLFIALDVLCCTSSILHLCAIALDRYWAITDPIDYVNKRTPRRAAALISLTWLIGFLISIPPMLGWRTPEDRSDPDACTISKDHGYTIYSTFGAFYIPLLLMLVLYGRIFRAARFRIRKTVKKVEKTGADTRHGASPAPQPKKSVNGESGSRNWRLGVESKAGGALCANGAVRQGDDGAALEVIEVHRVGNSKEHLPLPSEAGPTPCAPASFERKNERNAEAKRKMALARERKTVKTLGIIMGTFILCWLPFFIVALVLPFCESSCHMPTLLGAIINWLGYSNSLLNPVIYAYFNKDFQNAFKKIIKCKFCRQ

## CSc1ccc2c(c1)C(N1CCN(C)CC1)Cc1ccccc1S2 (stereo not shown) [Methiothepin]
  effect on 5-HT dose-response curve, CRE-luc: rightward parallel shift

Source: paper PMC4306921 (Scientific Reports, 2015)
